{"sequences": {"note": "Protein sequences, listed by entry. Tags and fused reporters are not part of them.", "UniProt P14842, whole entry": "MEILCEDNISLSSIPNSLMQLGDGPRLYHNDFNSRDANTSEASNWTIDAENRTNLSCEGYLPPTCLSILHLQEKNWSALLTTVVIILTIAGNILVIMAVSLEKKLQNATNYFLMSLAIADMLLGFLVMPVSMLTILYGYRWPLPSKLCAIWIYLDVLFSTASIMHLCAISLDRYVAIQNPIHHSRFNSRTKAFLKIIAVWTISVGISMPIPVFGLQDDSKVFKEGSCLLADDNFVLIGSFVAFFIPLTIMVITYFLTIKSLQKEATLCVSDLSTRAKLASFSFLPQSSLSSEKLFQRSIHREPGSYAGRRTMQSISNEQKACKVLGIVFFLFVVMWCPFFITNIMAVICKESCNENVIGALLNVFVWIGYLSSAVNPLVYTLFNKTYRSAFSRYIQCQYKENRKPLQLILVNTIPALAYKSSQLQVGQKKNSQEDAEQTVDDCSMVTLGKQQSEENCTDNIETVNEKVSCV"}, "source": "BindingDB's records for doi:10.1007/bf02311185", "about": "(Case Western Reserve University, 1995)", "biological_target": "5-hydroxytryptamine receptor 2A (Rattus norvegicus, UniProt P14842)", "note": "pKi: −log10 of the molar value.", "data": [{"smiles": "O=C(CCCN1CCC2(CC1)C(=O)NCN2c1ccccc1)c1ccc(F)cc1", "note": "[8-[4-(4-fluorophenyl)-4-oxidanylidene-butyl]-1-phenyl-1,3,8-triazaspiro[4.5]decan-4-one]", "values": [{"measurement": "pKi", "result": 9.52}]}]}
